Target: T1, YEATS domain of ENL (ENLYEATS) (Homo sapiens, UniProt Q03111)
T1 construct: 6xHis-SUMO (N, cleaved yes); made in house; host or cells: Escherichia coli BL21(DE3)
T1 sequence (Q03111 1-148): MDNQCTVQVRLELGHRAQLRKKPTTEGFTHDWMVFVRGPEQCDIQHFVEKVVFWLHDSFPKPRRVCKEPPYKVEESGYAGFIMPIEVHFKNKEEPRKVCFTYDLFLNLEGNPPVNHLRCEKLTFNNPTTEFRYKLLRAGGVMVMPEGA
Test: ITC binding to ENL YEATS domain (wild type)
Conditions: MicroCal PEAQ ITC, 15°C, protein 100 μM, peptide 1000 μM, 19 drops, one set of binding sites model, histone H3 (1–17) peptides, ENLYEATS wild type (residues 1–148)

- binding dissociation constant (Kd): not detected
Substance: unmodified: unmodified (H3K9un) histone H3 1-17 peptide
